Reference: US20090215805A1, “4-Heteroaryl Pyrimidine Derivatives and use thereof as Protein Kinase Inhibitors” (Cyclacel Limited, priority 2005, published 2009)

Chains of the proteins cited; added tags and fusions are not shown. Residues count along the entry.
UniProt Q9VGF9, 1-411: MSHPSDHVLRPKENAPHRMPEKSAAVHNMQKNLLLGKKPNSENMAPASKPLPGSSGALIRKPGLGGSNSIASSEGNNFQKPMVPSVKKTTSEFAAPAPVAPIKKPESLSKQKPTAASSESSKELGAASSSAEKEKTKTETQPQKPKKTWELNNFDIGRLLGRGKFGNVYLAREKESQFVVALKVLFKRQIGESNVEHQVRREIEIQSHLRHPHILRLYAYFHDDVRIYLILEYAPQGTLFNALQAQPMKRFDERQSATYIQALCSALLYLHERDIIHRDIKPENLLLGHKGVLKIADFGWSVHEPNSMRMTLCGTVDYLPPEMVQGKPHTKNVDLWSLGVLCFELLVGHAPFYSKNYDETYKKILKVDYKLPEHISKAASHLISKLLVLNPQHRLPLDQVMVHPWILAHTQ

Target: DM Aur A (Dm AK-A) (Drosophila melanogaster, UniProt Q9VGF9)
Assay: Dm aurora A kinase assay (DM Aur A / Dm AK-A)
Assay type: biochemical
Conditions: for IC50: read-out: DM Aur A IC50, values without asterisk (DM aurora A); for Ki: read-out: Ki Dm AK-A, in vitro kinase assay
Method: The compounds of the invention above were investigated for their ability to inhibit the enzymatic activity of various protein kinases. This was achieved by measurement of incorporation of radioactive phosphate from ATP into appropriate polypeptide substrates. Recombinant protein kinases and kinase complexes were produced or obtained commercially. Assays were performed using 96-well plates and appropriate assay buffers (typically 25 mM β-glycerophosphate, 20 mM MOPS, 5 mM EGTA, 1 mM DTT, 1 mM […], pH 7.4), into which were added 2-4 μg of active enzyme with appropriate substrates. The reactions were initiated by addition of Mg/ATP mix (15 mM MgCl2+100 μM ATP with 30-50 kBq per well of [γ-^32P]-ATP) and mixtures incubated as required at 30° C. Reactions were stopped on ice, followed by filtration through p81 filterplates or GF/C filterplates (Whatman Polyfiltronics, Kent, UK). After washing 3 times with 75 mM aq orthophosphoric acid, plates were dried, scintillant added and incorporated radioactivity measured in a scintillation counter (TopCount, Packard Instruments, Pangbourne, Berks, UK). Compounds for kinase assay were made up as 10 mM stocks in DMSO and diluted into 10% DMSO in assay buffer. Data was analysed using curve-fitting software (GraphPad Prism version 3.00 for Windows, GraphPad Software, San Diego Calif. USA) to determine IC50 values (concentration of test compound which inhibits kinase activity by 50%).

Row | Structure (SMILES) | IC50 | Ki
1 | CCOC(=O)c1[nH]c(C)c(-c2ccnc(Nc3ccc(I)cc3)n2)c1-c1ccccc1 | ≥ 10 µM | > 10 µM
2 | CCOC(=O)c1[nH]c(C)c(-c2ccnc(Nc3ccc(O)cc3)n2)c1-c1ccccc1 | 1.21 µM | 0.472 µM
3 | Cc1[nH]cc(-c2ccccc2)c1-c1ccnc(Nc2ccc(N3CCOCC3)cc2)n1 | 1.87 µM | 0.73 µM
4 | COCCOC(=O)c1[nH]c(C)c(-c2ccnc(Nc3ccc(N(C)C)cc3)n2)c1-c1ccccc1 | 0.777 µM | 0.303 µM
